Screening results from PubChem.
ClpP mod – qHTS Assay for Activators of ClpP | ATP-dependent Clp protease proteolytic subunit (Bacillus subtilis (strain 168)), P80244 | purified B. subtilis ClpP, FRET peptide cleavage, 20 min | Potency, µM (titrated, usually from 57.5 µM), without a hit: at the highest dose activity change, negative = active | actives 1.9% (n = 340,000); active = well fitted falling curve with a large enough effect; inconclusive = small, poorly fitted or top-dose-only effect; inactive = no such curve, though single readings can be large or run the other way; note: potency is the fitted concentration of half-maximal effect; the source files actives as falling curves though it sought activators and does not explain the sign; nearly all actives have a fitted effect of over 65% in size
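ClpP 10 microg/mL final, pH 8 Tris/KCl buffer with BSA, glycerol, Tween-20; compound pinned in; FRET-FV substrate; RT 20 min; Ex320/Em430; ΔFRET vs ADEP 5.8 microM, DMSO, no enzyme.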
TrxR1 substrate – is turned over as a substrate by rat TrxR1; O89049; purified TrxR1 substrate turnover, NADPH consumption readout; Potency, µM (series often up to 114 µM), for the others: at the top dose activity change, negative = substrate turnover; actives 0.01% (n = 390,000); AID 588456; note: potency is the fitted concentration of half-maximal effect; % is set by controls: 0 for no effect and ±100 for the full control effect; nearly all actives have a fitted effect of over 50% in size
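Rat TrxR1, dispensed at 90 nM, was prereduced with 400 uM NADPH (final) for 5 min at ~22 deg C, then incubated with compound 15 min before 400 uM selenite. A first-read NADPH fluorescence drop versus no-compound background flagged substrates.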
Anesthetic bind – binds horse apoferritin like a general anesthetic; P02791; apoferritin/1-aminoanthracene competitive binding, fluorescence; Potency, µM (titrated, usually from 77.5 µM), inactives show at the top dose activity change, negative = displacement, hits mostly inhibitors; actives 0.074% (n = 350,000); AID 485281; note: potency is the fitted concentration of half-maximal effect; % is set by controls: 0 for no effect and ±100 for the full control effect; nearly all actives have a fitted effect of over 20% in size
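Horse-spleen apoferritin (10 uM) in 50% saturated 1-aminoanthracene in PBS was incubated 10 min at room temperature with compound. Fluorescence (ex 380, em 535 nm) was normalized to free and bound 1-AMA, with concentration-response fitted by a four-parameter Hill equation.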
TrxR1 inh – rat TrxR1 inhibition; recombinant rTrxR1, NADPH fluorescence consumption, selenite substrate; Potency, µM (doses to about 114 µM), without a hit: at the highest dose activity change, negative = inhibition, usual class: inhibitors; actives 1% (n = 390,000); AID 588453; note: potency is the fitted concentration of half-maximal effect; % is set by controls: 0 for no effect and ±100 for the full control effect; nearly all actives have a fitted effect of over 65% in size
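Rat TrxR1 (90 nM in the dispensed reagent) was pre-reduced with 400 uM NADPH for 5 min at room temperature, then incubated with compound for 15 min. After 400 uM selenite was added, NADPH fluorescence (Ex 340/Em 450 nm) was followed for 8 min.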
miR-21 reporter – miR-21 reporter, rising signal | AID 2288 | HeLa miR-21 FLuc reporter, luciferase, 48 h | 340,000 tested, under 10 active | Potency, µM (doses to about 38.3 µM), for inactives: at the top dose reporter change, positive = more light; active = well fitted rising curve with a large enough effect; inconclusive = small, poorly fitted or top-dose-only effect; inactive = no such curve, though single readings can be large or run the other way;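 note: % of control where 0% means no effect; miR-21 action dims this reporter so a rising signal means less miR-21 action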
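Using DMEM plus 10% FBS, HeLa miR-21-FLuc cells are incubated with test compounds (final up to about 40uM) for 48 hours; firefly luciferase signal is then imaged following reagent-mediated lysis.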
* hit, by the source's call; [ ] = another dose, or the depositor's remark. The list is not random: actives were taken first. Their share in the collection is about 2.5%. Unless noted, calls come from the whole dose curve; as a rule, active = well fitted curve in the direction sought with a large enough effect; inconclusive = small, poorly fitted or top-dose-only effect, or another doubt; inactive = no such curve, though single readings can be large; an effect the other way counts as inactive or inconclusive.

Sequences of proteins named here, by UniProt entry; tags and fusion partners are left off.
ATP-dependent Clp protease proteolytic subunit (Bacillus subtilis (strain 168)), P80244, UniProt P80244, whole entry, looked up: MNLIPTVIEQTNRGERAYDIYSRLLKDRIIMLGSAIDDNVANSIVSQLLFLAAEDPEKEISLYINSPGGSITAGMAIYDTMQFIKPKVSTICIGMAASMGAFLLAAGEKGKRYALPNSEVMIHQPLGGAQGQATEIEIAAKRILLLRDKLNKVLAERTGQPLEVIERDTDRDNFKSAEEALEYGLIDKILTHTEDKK

Screening COc1cccc(C2=NS(=O)(=O)N(C)C(C(=O)Nc3cccc(O)c3)=C2)c1 returned ClpP mod -0.4%, TrxR1 substrate -6.0%, Anesthetic bind inconclusive, TrxR1 inh 8.4% and miR-21 reporter 9.5%.
COC(=O)CNC(=O)C1CCN(c2nc(C)cc(C)n2)CC1 was read as ClpP mod 31.6µM*, TrxR1 substrate 35.0%, Anesthetic bind -13.2%, TrxR1 inh 23.3% and miR-21 reporter -5.2%.
Cc1cc(C)nc(N2CCC(C(=O)NC3CCCCCC3)CC2)n1 was read as ClpP mod -1.3%, TrxR1 substrate 5.1% and TrxR1 inh 14.1%.
Cc1cc(C)nc(N2CCC(C(=O)NCc3ccco3)CC2)n1 was read as ClpP mod 15.8µM*, TrxR1 substrate 14.7%, Anesthetic bind -3.8%, TrxR1 inh 17.4%[57.1 µM] and miR-21 reporter -1.5%.
Screening Cc1cc(C)nc(N2CCCC(C(=O)NC3CCCC3)C2)n1 (configuration not stated) returned ClpP mod 22.4µM*, TrxR1 substrate 21.4%, Anesthetic bind -8.4%, TrxR1 inh 11.9% and miR-21 reporter -3.2%.
O=C(NCc1ccc2c(c1)CCN2C(=O)c1ccc(F)cc1)c1ccc(Br)o1 was read as ClpP mod 0.9%, TrxR1 substrate -2.7%[57.1 µM], Anesthetic bind -11.1%, TrxR1 inh -0.8%[57.1 µM] and miR-21 reporter inconclusive.
For COCCN(CC(=O)NC1CCCCC1)C(=O)/C=C/C(=O)c1ccc(OC)cc1O the results were TrxR1 substrate 8.6%[57.1 µM], Anesthetic bind -14.7%, TrxR1 inh 2µM* and miR-21 reporter 0.5%.
For COc1ccc(C(=O)/C=C/C(=O)N(CC(=O)NC2CCCCC2)Cc2cccs2)c(O)c1 the results were ClpP mod 5.2%, TrxR1 substrate 2.9%, Anesthetic bind -23.3%, TrxR1 inh 1µM* and miR-21 reporter 27.3%.
For COc1ccc(C(=O)/C=C/C(=O)N(Cc2ccc3c(c2)OCO3)C(C(=O)NC2CCCCC2)c2ccncc2)c(O)c1 (configuration not stated) the results were ClpP mod 12.6µM*, TrxR1 substrate 1.2%, Anesthetic bind -21.0%, TrxR1 inh 14.0% and miR-21 reporter 0.7%.
Cc1ccc(CN(C)C(=O)C2CCCN2C(=O)c2cccs2)o1 (configuration not stated) was read as ClpP mod -2.4%, TrxR1 substrate 8.9%, Anesthetic bind -12.0%, TrxR1 inh 10µM* and miR-21 reporter -1.8%.
Screening CCOc1ccc(OC(=O)c2cn(-c3ccc(C)cc3)c(=O)c3ccccc23)cc1 returned ClpP mod -1.6%, TrxR1 substrate 4.1%[57.1 µM], Anesthetic bind inconclusive, TrxR1 inh 8.2%[57.1 µM] and miR-21 reporter 0.2%.
Screening CN(C)CCN(C(=O)CCS(=O)(=O)c1ccccc1)c1nc2c(F)cccc2s1 returned ClpP mod -1.5%, TrxR1 substrate -7.7%, Anesthetic bind -11.3%, TrxR1 inh 25.1µM* and miR-21 reporter -3.8%.
`CCN(CC)CCN(C(=O)CCOc1ccccc1)c1nc2c(F)cc(F)cc2s1` gave TrxR1 substrate 2.1%, Anesthetic bind -5.3%, TrxR1 inh 11.2µM* and miR-21 reporter -3.0%.
For CN(C)CCCN(C(=O)CCS(=O)(=O)c1ccccc1)c1nc2cc3c(cc2s1)OCO3 the results were ClpP mod 0.6%, TrxR1 substrate 2.5%, Anesthetic bind -10.3%, TrxR1 inh 6.31µM* and miR-21 reporter inconclusive.
Screening Cc1ccc2sc(N(CCCN(C)C)C(=O)CCS(=O)(=O)c3ccccc3)nc2c1C returned ClpP mod 0.9%, TrxR1 substrate 2.5%, Anesthetic bind -15.1%, TrxR1 inh 17.8µM* and miR-21 reporter inconclusive.
O=C(CCOc1ccccc1)N(Cc1cccnc1)c1nc2c(F)cc(F)cc2s1 was read as ClpP mod -11.9%, TrxR1 substrate 4.4%[57.1 µM], Anesthetic bind 25.3%, TrxR1 inh inconclusive and miR-21 reporter -8.3%.
Screening Cc1ccc(CN2CCC(CNC(=O)c3cc4ccc5cccnc5c4[nH]3)CC2)cc1 returned ClpP mod 0.4%, TrxR1 substrate 0.8%, Anesthetic bind inconclusive, TrxR1 inh 5.9% and miR-21 reporter inconclusive.
COc1ccc(OC)c2sc(N(CCCN(C)C)C(=O)CCS(=O)(=O)c3ccccc3)nc12 was read as ClpP mod -2.6%, TrxR1 substrate -1.6% and TrxR1 inh 2.82µM*.
O=C(O)CSc1nc2ccc(Cl)cc2[nH]1 was read as ClpP mod 25.1µM*, TrxR1 substrate 15.6%[57.1 µM], Anesthetic bind -9.2%, TrxR1 inh 12.6%[57.1 µM] and miR-21 reporter -18.9%.
Screening O=C(O)CSc1nc2ccc(Br)cc2[nH]1 returned TrxR1 substrate 10.5% and TrxR1 inh 19.4%.
Screening CCO/C=C1\C(=O)N(c2ccccc2)C(=O)c2ccccc21 returned ClpP mod 31.6µM*, TrxR1 substrate 42.6%, Anesthetic bind 3.9%, TrxR1 inh -11.2% and miR-21 reporter -43.9%.
Screening CCO/C=C1/C(=O)N(c2ccc(OC)cc2)C(=O)c2ccccc21 returned ClpP mod 3.8%, TrxR1 substrate 47.2%, Anesthetic bind -9.9%, TrxR1 inh 16.1%[57.1 µM] and miR-21 reporter 1.1%.
Screening Cc1ccc(C2=NN(CC(=O)NCCc3ccc(Cl)cc3)C(=O)CC2)cc1 returned ClpP mod 0.5%, TrxR1 substrate 3.6%[57.1 µM], Anesthetic bind 34.9%, TrxR1 inh 18.0%[57.1 µM] and miR-21 reporter -0.9%.
Screening COc1ccccc1OCCC(=O)OCC(=O)Nc1ccc(Br)cc1 returned ClpP mod 28.2µM*, TrxR1 substrate 9.0%[57.1 µM], Anesthetic bind -3.0%, TrxR1 inh -0.4%[57.1 µM] and miR-21 reporter -5.6%.

Pulled by compound from above:
O=C(O)CSc1nc2ccc(Cl)cc2[nH]1 was read as ClpP mod 25.1µM*, TrxR1 substrate 15.6%[57.1 µM], Anesthetic bind -9.2%, TrxR1 inh 12.6%[57.1 µM] and miR-21 reporter -18.9%.
Screening Cc1ccc(C2=NN(CC(=O)NCCc3ccc(Cl)cc3)C(=O)CC2)cc1 returned ClpP mod 0.5%, TrxR1 substrate 3.6%[57.1 µM], Anesthetic bind 34.9%, TrxR1 inh 18.0%[57.1 µM] and miR-21 reporter -0.9%.

Back to the main list, repeating the 2 entries before the break.
Screening Cc1ccc(C2=NN(CC(=O)NCCc3ccc(Cl)cc3)C(=O)CC2)cc1 returned ClpP mod 0.5%, TrxR1 substrate 3.6%[57.1 µM], Anesthetic bind 34.9%, TrxR1 inh 18.0%[57.1 µM] and miR-21 reporter -0.9%.
Screening COc1ccccc1OCCC(=O)OCC(=O)Nc1ccc(Br)cc1 returned ClpP mod 28.2µM*, TrxR1 substrate 9.0%[57.1 µM], Anesthetic bind -3.0%, TrxR1 inh -0.4%[57.1 µM] and miR-21 reporter -5.6%.
`COc1ccccc1OCCC(=O)OCC(=O)Nc1cccc(Br)c1` gave ClpP mod inconclusive, TrxR1 substrate 4.0%[57.1 µM], Anesthetic bind -8.1%, TrxR1 inh 2.9%[57.1 µM] and miR-21 reporter -7.0%.
O=C1C2C3C=CC(C3)C2C(=O)N1c1ccc(-c2nc3ccccc3o2)cc1 (configuration not stated) was read as ClpP mod 6.31µM*, TrxR1 substrate 8.3%[57.1 µM], Anesthetic bind -11.1%, TrxR1 inh 8.4%[57.1 µM] and miR-21 reporter -46.0%.
Screening O=C1C2C3C=CC(C3)C2C(=O)N1c1ccncc1 (configuration not stated) returned ClpP mod inconclusive, TrxR1 substrate -0.7%, Anesthetic bind -8.4%, TrxR1 inh 0.2% and miR-21 reporter 0.8%.
For N#C/C(=N\Nc1c(Cl)cccc1Cl)C(=O)NN the results were ClpP mod 15.8µM*, TrxR1 substrate -15.4%, Anesthetic bind -23.7%, TrxR1 inh 8.3%[57.1 µM] and miR-21 reporter -46.9%.
